An excerpt weighted towards active compounds, which were near 1.3% of everything screened.
PTHR1 agonist – PTHR1 (human) receptor agonism. Q03431. HEK293 GP2 PTHR1 cells, GloSensor cAMP luminescence, 1 h. AID 743266. Potency, µM (titrated, usually from 115 µM), for the others: at the top dose activation, actives largely listed as activators. 0.075% of 410,000 active; note: potency is the fitted concentration of half-maximal effect; nearly all actives have a fitted effect of over 55% in size
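HEK-293-derived GP2 cells expressing PTHR1 and a GloSensor cAMP reporter, 3,000/well, plated overnight, given luciferin plus IBMX (each 0.5 mM as added) for 1 h at 37 °C, then compound for 1 h at 37 °C. Luminescence was read after 15 min at room temperature.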
PINK1 modulator – PINK1 expression modulation; PINK1 immunofluorescence, high-content cytometry, 24 h; Potency, µM (highest dose often 76.6 µM), inactives show top-dose activation (PINK1 increase), most hits filed as activators; 0.2% of 410,000 active; active = well fitted activation curve with a large enough effect; inconclusive = small, poorly fitted or top-dose-only effect; cell line not stated here; note: potency is the fitted concentration of half-maximal effect; % of control where 0% means no effect; nearly all actives have a fitted effect of over 65% in size
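Compound titrations (5 concentrations, 24 h) on a stable cell line; DMSO and CCCP controls. Endpoint: fixed-cell PINK1 immunofluorescence with mitochondrial, cell and nuclear markers, scanned by microplate cytometer.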
12-LOX inh – blocks human arachidonate 12S-lipoxygenase. P18054. purified 12hLO, xylenol orange hydroperoxide absorbance. Potency, µM (highest dose often 108 µM), without a hit: at the top dose activity change, negative = inhibition, usual class: inhibitors. 1.1% of 580,000 active; note: potency is the fitted concentration of half-maximal effect; % is set by controls: 0 for no effect and ±100 for the full control effect
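Purified human 12hLO at 150 nM in 25 mM Hepes, 0.01% Triton X-100, pH 7.0, preincubated 15 min at room temperature with compound. Reaction started with 40 uM arachidonic acid, 30 min at room temperature. Hydroperoxide measured by Fe-xylenol orange, 573/405 nm absorbance ratio.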
miR-21 reporter – miR-21 reporter, rising signal. 340,000 tested, under 10 active. Potency, µM (highest dose often 38.3 µM), for the others: at the highest dose reporter change, positive = more light. HeLa miR-21 FLuc reporter, luciferase, 48 h. AID 2288; active = well fitted rising curve with a large enough effect; inconclusive = small, poorly fitted or top-dose-only effect; inactive = no such curve, though single readings can be large or run the other way;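 further: % of control where 0% means no effect; miR-21 action dims this reporter so a rising signal means less miR-21 action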
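Luminescence from a firefly luciferase reporter carrying a miR-21 binding site downstream, stably expressed under a CMV promoter in HeLa cells that make miR-21 endogenously, reports miRNA modulation after 48 h compound exposure up to approximately 40uM final.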
ERG Ets-DNA blk – inhibitors of human ERG Ets domain-DNA interaction | P11308 | Potency, µM (highest dose often 76.9 µM), for the others: top-dose FP activity, negative = inhibition, usual class: inhibitors | 0.028% of 370,000 active | AID 624246 | fluorescence polarization, His-ERG Ets domain / labelled DNA; active = well fitted inhibition curve with a large enough effect in the polarisation, with a control signal flat; inconclusive = small, poorly fitted or top-dose-only effect, or effect the other way, or a change in a side signal; inactive = no such curve, though single readings can be large or run the other way; the % refers to the polarisation;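 note: polarization taken with two DNA probes labelled with fluorescein and Texas red; potency is the fitted concentration of half-maximal effect; % of control where 0% means no effect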
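His-tagged ERG Ets domain (1 uM in the protein solution; 300mM KCl, 50mM Tris-HCl, 1mM EDTA, 1mM DTT, pH 7.5) received compound, then a probe mix of 5 nM fluorescein-DNA and 100nM Texas-615-DNA. Fluorescence polarization was read for both dyes.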
Giardia killer – Giardia lamblia killing; Giardia lamblia trophozoite viability; activity change, % at 7.66 µM, hits read low; 0.15% of 340,000 active; AID 540267; in the data active = activity change below about -80%; inconclusive = between about -30% and that limit;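 note: parasites exposed to compound for two days anaerobically before the ATP read; % is set by controls: 0 for no effect and ±100 for the full control effect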
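Trophozoite viability was measured as ATP-dependent luminescence, read 15-30 min after reagent addition. Before that, parasites at 100 cells/well were exposed to compounds for 48 h, anaerobically, at 37 deg C.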
Starred values were filed as active, the others as inactive; i = inactive; u = inconclusive; x = not tested or not shown; ! = not confirmed by another sample; [ ] = remark or other dose. Unless noted, calls come from the whole dose curve; as a rule, active = well fitted curve in the direction sought with a large enough effect; inconclusive = small, poorly fitted or top-dose-only effect, or another doubt; inactive = no such curve, though single readings can be large; an effect the other way counts as inactive or inconclusive.

#1 COc1ccccc1OCC(=O)N(C)Cc1nc(-c2cccc(C)c2)no1
#2 Cc1ccc(C2=NC3(CCN(C(=O)c4cccc(C#N)c4)CC3)ON2)cc1
#3 O=C(NC1CCN(c2cc(-c3ccc(F)cc3)[nH]n2)CC1)c1cccc2[nH]ccc12
#4 O=[N+]([O-])c1ccc(S(=O)(=O)Nc2nc3ccccc3nc2Nc2ccccc2)cc1
#5 Cc1ccc(NC(=O)c2ccc(C3Nc4cc(C(F)(F)F)ccc4S(=O)(=O)N3)cc2)cc1C (stereo not given)
#6 COc1ccc(N2C(=O)c3cc4ccccc4cc3C2=O)cc1
assay / entry | 1 | 2 | 3 | 4 | 5 | 6
PINK1 modulator | x | x | x | 35.5µM* | x | -0.7%
12-LOX inh | 10.0% | 34.5% | 2.8% | -0.3% | -28.6% | -0.1%
ERG Ets-DNA blk | x | x | x | -4.6% | x | 13.9%
Giardia killer | x | x | x | -5.2 | x | u
PTHR1 agonist | x | x | x | -40.4% | x | i
miR-21 reporter | x | x | x | -5.6% | x | -4.1%

#7 CCN(CC)C(=O)c1cc2sc3ccccc3c2s1
#8 COCCN(CCOC)C(=O)c1cc2sc3ccccc3c2s1
#9 Cn1c(=O)c2c(ncn2CC(=O)Nc2cccc3ccccc23)n(C)c1=O
#10 O=C1/C(=C\c2ccco2)CCC/C1=C\c1ccco1
#11 COc1ccc(-c2nc(CSc3nncn4c3cc3occc34)c(C)o2)cc1
#12 CCOC(=O)c1cc(-c2csc(Nc3c(C)cc(C)cc3C)n2)on1
assay / entry | 7 | 8 | 9 | 10 | 11 | 12
PINK1 modulator | 0.6% | -1.7%[38.3 µM] | x | u | 3.5% | -1.9%
12-LOX inh | 15.8µM* | -14.8% | 0.9% | 25.1µM* | u | 20µM*
ERG Ets-DNA blk | -4.9% | x | x | 71.3% | 4.5% | 3.3%
Giardia killer | 9.1 | -9.9 | x | -6.3 | x | -6.4
PTHR1 agonist | -18.8%[57.5 µM] | -4.7%[57.5 µM] | x | -20.0% | i | -20.3%
miR-21 reporter | -70.3% | -33.6% | x | -0.2% | 3.3% | -7.5%

#13 COc1ccc(C(=O)c2nc3c(n2O)CCCC3)cc1OC
#14 COc1ccc(C(=O)c2nc3c(n2O)CCCCC3)cc1
#15 CCc1ccc2[nH]c(=O)c(C3C(C#N)=C(N)Oc4c3ccc3cccnc43)cc2c1 (stereo not given)
#16 Cc1ccc2cc(C3C(C#N)=C(N)Oc4c3ccc3cccnc43)c(=O)[nH]c2c1 (stereo not given)
#17 CC[N+](C)(CC)CCCOC(=O)C1(c2ccccc2)CCCC1
#18 C[N+](C)(C)CCOC(=O)C1(c2ccccc2)CCCC1
assay / entry | 13 | 14 | 15 | 16 | 17 | 18
PINK1 modulator | 3.9% | 0.3% | 1.6% | 1.3%[38.3 µM] | x | -1.4%
12-LOX inh | 8.91µM* | u | -29.7% | 25.1µM* | 20µM* | 154.4%
ERG Ets-DNA blk | 3.5% | 12.2% | -3.3% | -7.1% | x | -5.5%
Giardia killer | -6.5 | 22.1 | 40.0 | 17.9 | x | -4.7
PTHR1 agonist | -28.4% | i | -18.7%[57.5 µM] | -31.7% | x | -6.2%
miR-21 reporter | -2.7% | -38.0% | 17.5% | 21.7% | x | -1.0%

#19 CC[N+](CC)(CC)CCCOC(=O)C1(c2ccccc2)CCCC1
#20 CCn1c(-c2ccc(F)cc2)n[nH]c1=S
#21 Cn1cccc1/C=N/n1c(-c2ccc(C(C)(C)C)cc2)n[nH]c1=S
#22 CCn1c(-c2cc3ccccc3cc2O)n[nH]c1=S
#23 CCn1c(-c2ccc3[nH]c(C)c(C)c3c2)n[nH]c1=S
#24 CCn1c(-c2ccc(C(C)(C)C)cc2)n[nH]c1=S
assay / entry | 19 | 20 | 21 | 22 | 23 | 24
PINK1 modulator | x | -0.4% | 7.8% | -5.0% | x | 2.2%
12-LOX inh | 20µM* | u | 25.1µM* | u | 10µM* | 15.8µM*
ERG Ets-DNA blk | x | -8.1% | -5.2% | 7.2% | x | 0.4%
Giardia killer | x | -16.4 | 14.2 | 7.7 | -18.4 | -19.8
PTHR1 agonist | x | -25.7% | i | 16.3%[57.5 µM] | -1.1%[57.5 µM] | -11.0%
miR-21 reporter | x | -0.4% | -36.7% | -26.0% | -20.7% | -9.0%

#25 CCn1c(-c2cc(Br)ccc2O)n[nH]c1=S
#26 COc1ccccc1CCc1nnc(CCC(=O)NC(C)Cc2ccsc2)o1 (stereo not given)
#27 CCCC(=O)Nc1cccc(C(=O)OC/C(=N\O)c2ccc(OC)cc2)c1
#28 CCN(CC)S(=O)(=O)c1cccc(-c2n[nH]c(=S)n2CC(C)C)c1
#29 CCn1c(-c2cccc(Cl)c2)n[nH]c1=S
#30 CCn1c(-c2cc(Cl)ccc2OC)n[nH]c1=S
assay / entry | 25 | 26 | 27 | 28 | 29 | 30
PINK1 modulator | x | 0.2% | x | -0.3% | 0.0% | -1.0%
12-LOX inh | 44.7µM* | 2.6% | 0.7% | 31.6µM* | 28.2µM* | u
ERG Ets-DNA blk | x | 8.6% | x | 18.2% | 1.5% | 8.7%
Giardia killer | 4.1 | -6.4 | x | -15.2 | 8.1 | 8.5
PTHR1 agonist | i | i | x | 29.4% | -1.4%[57.5 µM] | -9.9%
miR-21 reporter | x | -3.7% | x | -6.6% | -5.8% | -6.7%

#31 CCCc1sc(N/N=C/c2ccccn2)nc1-c1ccc(F)cc1
#32 Cc1nc(N/N=C/c2ccccn2)sc1C
#33 Brc1ccc2nc(-c3ccco3)c(CC3CCCCC3)n2c1
#34 Cc1ccc2nc(-c3cccc(Br)c3)c(Cc3cccc(F)c3)n2c1
#35 Cc1ccc(Cc2c(-c3ccco3)nc3ccc(Br)cn23)cc1
#36 Cc1ccc(Cc2c(-c3cccc(Br)c3)nc3ccc(Br)cn23)cc1
assay / entry | 31 | 32 | 33 | 34 | 35 | 36
PINK1 modulator | 12.6µM* | 12.1% | 0.2% | x | 1.5% | 2.6%
12-LOX inh | x | -5.4% | 15.8µM* | 1.6% | 39.8µM* | 25.1µM*
ERG Ets-DNA blk | x | -6.9% | x | x | x | x
Giardia killer | 14.5 | -14.9 | x | x | x | x
PTHR1 agonist | -25.3% | -38.4% | i | x | -2.5% | -25.5%
miR-21 reporter | 8.5% | u | x | x | x | x

#37 Cc1ccc(Cc2c(-c3ccc(Cl)cc3)nc3cc(C)c(Br)c(C)n23)cc1
#38 Cc1ccc(-c2nc3cc(C)c(Br)c(C)n3c2Cc2ccccc2)cc1
#39 Cc1ccc(Cc2c(-c3ccc(Cl)cc3)nc3ccc(Br)cn23)cc1
#40 Cc1ccc(Cc2c(-c3ccc(C)cc3)nc3ccc(Br)cn23)cc1
#41 Cc1cc(C)nc(SC(C(=O)O)c2ccccc2)n1 (stereo not given)
#42 Cc1cc(C(F)(F)F)nc(SC(C(=O)O)c2ccccc2)n1 (stereo not given)
assay / entry | 37 | 38 | 39 | 40 | 41 | 42
PINK1 modulator | 0.5% | 13.7% | 6.5% | 11.7% | 1.6% | x
12-LOX inh | 8.91µM* | -18.5% | u | 10µM* | -0.5% | 11.2µM*
ERG Ets-DNA blk | x | x | x | x | 9.5% | x
Giardia killer | x | x | x | x | 1.5 | x
PTHR1 agonist | -23.7% | 27.0% | i | -45.1% | i | x
miR-21 reporter | x | x | x | x | -1.5% | x

#43 CN1Cc2nnn(Cc3ccccc3)c2-c2cc(N3CCCC3)ccc2S1(=O)=O
#44 Cc1ccc(-c2ccc(/C=N/N3C(=O)C4C5C=CC(CC5)C4C3=O)o2)c([N+](=O)[O-])c1 (stereo not given)
#45 O=C1C2C3C=CC(C4CC34)C2C(=O)N1/N=C/c1ccc(-c2ccc(F)cc2[N+](=O)[O-])o1 (stereo not given)
#46 CC(C)N1C(=O)CC[C@@H](S(=O)(=O)c2ccccc2)[C@@H]1c1ccccc1
#47 Cc1cccc(OCC(=O)Nc2ccc(S(=O)(=O)Nc3onc(C)c3C)cc2)c1C
#48 CC1CC(C)(C)CC2(C1)NC(=O)N(CC(=O)OCc1ccc(Br)cc1)C2=O (stereo not given)
#49 CCOC(=O)Nc1ccc(NS(=O)(=O)c2cc(F)ccc2F)cc1
#50 CCOC(=O)Nc1ccc(NS(=O)(=O)c2ccc(F)cc2C)cc1
#51 S=c1[nH]nc(CCc2ccccc2)n1-c1ccc(Cl)cc1
assay / entry | 43 | 44 | 45 | 46 | 47 | 48 | 49 | 50 | 51
PINK1 modulator | x | x | 1.4% | x | -0.6% | 11.9% | x | x | -0.4%
12-LOX inh | 36.4% | -15.4% | -9.6% | -13.1% | 39.8µM*! | -8.1% | 8.4% | 25.1µM* | 31.6µM*
ERG Ets-DNA blk | x | x | -0.1% | x | 10.8% | 24.8% | x | x | 7.5%
Giardia killer | x | -101.9* | -3.9 | x | 3.1 | 24.2 | x | x | 4.9
PTHR1 agonist | x | i | -28.0% | x | -18.4% | -11.4% | x | x | -11.0%
miR-21 reporter | x | -8.4% | -12.1% | x | -3.4% | x | x | x | -1.7%

By substructure: those above containing a thiophene ring, fused or not
#7 CCN(CC)C(=O)c1cc2sc3ccccc3c2s1
#8 COCCN(CCOC)C(=O)c1cc2sc3ccccc3c2s1
#26 COc1ccccc1CCc1nnc(CCC(=O)NC(C)Cc2ccsc2)o1 (stereo not given)
assay / entry | 7 | 8 | 26
PINK1 modulator | 0.6% | -1.7%[38.3 µM] | 0.2%
12-LOX inh | 15.8µM* | -14.8% | 2.6%
ERG Ets-DNA blk | -4.9% | x | 8.6%
Giardia killer | 9.1 | -9.9 | -6.4
PTHR1 agonist | -18.8%[57.5 µM] | -4.7%[57.5 µM] | i
miR-21 reporter | -70.3% | -33.6% | -3.7%

Assay outcomes (PubChem)
